## Ab-95 light chain CDR variants: yeast mating affinities

All variants were tested on one target, the spike HR2 peptide PDVDLGDISGINAS (SARS-CoV-2).

Each scFv is VH, a (GGGGS)3 linker, VL, as in the parent Ab-95, and differs from it in the CDRs of the light chain only.
VH: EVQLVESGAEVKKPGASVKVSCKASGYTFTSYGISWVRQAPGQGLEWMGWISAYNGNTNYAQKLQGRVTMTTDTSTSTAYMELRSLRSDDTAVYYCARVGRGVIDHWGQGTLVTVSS
VL: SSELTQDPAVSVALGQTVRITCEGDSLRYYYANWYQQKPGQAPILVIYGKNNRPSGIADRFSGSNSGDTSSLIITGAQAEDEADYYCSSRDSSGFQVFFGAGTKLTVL

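The parent was found by panning a naive human phage display library on the peptide. AAYL52 was designed without a model: most single CDR substitutions and a random sample of double and triple ones. The scFvs were displayed on barcoded MATa yeast, the peptide on MATalpha yeast. Pairs that bind mate more often; barcode pairs of the diploids are counted by sequencing. The ratio of observed to expected reads was calibrated, replicate by replicate, on BCL2-family standards whose Kd was known from biolayer interferometry. There are three technical replicates.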

Substitutions are numbered in sequence along the VL above, starting at 1 (not Kabat).
The read-out is the apparent dissociation constant on a log10 scale (nM): the lower, the stronger.
An entry "n.d." has no value in the source: the pair was not observed among the diploids in that replicate. This suggests poor binding but is not conclusive.
Background: pairings of library AAYL52 with three empty control strains gave a value in 28% of cases (median 3.91, 5th percentile 2.90). Values in that range, when seen in few replicates, are hard to tell from nonspecific mating. For each scFv, signals with the empty controls are counted beside the result, with their mean in brackets.
In this assay the parent's reference entry averaged 2.31; its copy inside this library read 2.25.

changes	log10 Kd, replicates	empty controls
S26E/Y30M/N33E	3.26 / n.d. / n.d.	2/9 (4.44)
E23I/R53N/F98P	2.99 / 3.10 / 3.30	3/9 (3.64)
L27I/N51K/D91T	3.54 / 2.93 / 2.83	3/9 (4.36)
N33K/N52Q/P54R	n.d. / n.d. / n.d.	0/9
Y31H/R53C/S93P	3.54 / 3.62 / 4.56	4/9 (4.15)
Y31P/S89V/F98K	2.34 / 2.64 / 2.01	2/9 (3.99)
K50T/S89Y/Q96D	3.05 / 3.01 / 2.89	1/9 (3.64)
S26K/G49S/N51Q	4.43 / n.d. / n.d.	1/9 (3.53)
D25R/S88R/D91L	3.13 / n.d. / n.d.	0/9
D25I/A32K/G49H	n.d. / 4.27 / n.d.	2/9 (3.38)
S26M/Y29L/Q96E	4.47 / n.d. / n.d.	1/9 (4.23)
F98G	2.72 / 2.54 / 2.88	4/9 (4.19)
S88M/S93F/F95A	2.77 / 2.68 / 2.21	5/9 (4.00)
L27V/Y31A/S92M	2.54 / 2.37 / 2.55	2/9 (5.10)
Y31A/N52C/S93P	3.79 / 3.56 / 4.19	5/9 (4.15)
E23A/S26W/S88F	n.d. / 4.24 / n.d.	0/9
N33S/S88E/S93V	4.28 / n.d. / n.d.	0/9
D91G/S92I/F95W	2.56 / 3.00 / 3.06	4/9 (3.76)
R28A/Y29I/D91A	n.d. / n.d. / n.d.	0/9
L27A/D91P/V97K	n.d. / n.d. / 3.71	3/9 (3.34)
G49W/K50N/G94R	n.d. / 3.59 / 3.42	3/9 (4.23)
A32T/R53P/S93L	n.d. / n.d. / n.d.	0/9
S26E/S55L/D91H	5.05 / n.d. / n.d.	3/9 (3.49)
D91C/G94W/V97W	2.31 / 2.78 / 1.85	3/9 (4.42)
Y29W/N33R/F98Q	n.d. / n.d. / n.d.	2/9 (3.79)
Y31D/S88W/D91Q	2.27 / 2.14 / 1.91	6/9 (4.55)
R28K/R53Q/S55C	4.05 / 3.35 / 2.72	1/9 (3.43)
Y30R/G49H/S93Y	n.d. / 3.82 / 3.79	4/9 (3.69)
Y30E/A32T/F95D	3.26 / 3.05 / 3.75	1/9 (3.52)
R53E/S55H/R90W	n.d. / n.d. / n.d.	4/9 (4.22)
E23I/G24C/N52P	n.d. / 5.63 / n.d.	3/9 (3.65)
L27E/N51I/G94L	4.84 / n.d. / n.d.	4/9 (4.25)
G24W/N51V/S89G	3.37 / n.d. / n.d.	5/9 (4.15)

Repeated from above, the 6 best binders with a signal in all replicates:

changes,"log10 Kd, replicates",empty controls
Y31D/S88W/D91Q,2.27 / 2.14 / 1.91,6/9 (4.55)
D91C/G94W/V97W,2.31 / 2.78 / 1.85,3/9 (4.42)
Y31P/S89V/F98K,2.34 / 2.64 / 2.01,2/9 (3.99)
L27V/Y31A/S92M,2.54 / 2.37 / 2.55,2/9 (5.10)
S88M/S93F/F95A,2.77 / 2.68 / 2.21,5/9 (4.00)
F98G,2.72 / 2.54 / 2.88,4/9 (4.19)

The measurements come from Engelhart et al. 2022 (doi:10.1038/s41597-022-01779-4) through the FLAb antibody collection.